{"source": "patent US11254667B2", "about": "(priority 2016, dated 2022)", "biological_target": "CDK7/cyclin H (Homo sapiens (Human), UniProt P50613)", "settings": "read-out: IC50 CDK7/cyclin H", "data": [{"smiles": "CC1(COc2ccc3c(c2)ncn3-c2ccc3cccc(N4CCC(N)CC4)c3n2)COC1", "note": "[Crenolinib, reference compound]", "values": [{"measurement": "IC50", "result": 1260, "unit": "nM"}]}]}
